The results in this text go back to publication PMC4387200 (Toxicology and applied pharmacology, 2015).

This data set addresses T1, Human PXR (Homo sapiens, UniProt O75469).
T1 sequence (O75469 107-434): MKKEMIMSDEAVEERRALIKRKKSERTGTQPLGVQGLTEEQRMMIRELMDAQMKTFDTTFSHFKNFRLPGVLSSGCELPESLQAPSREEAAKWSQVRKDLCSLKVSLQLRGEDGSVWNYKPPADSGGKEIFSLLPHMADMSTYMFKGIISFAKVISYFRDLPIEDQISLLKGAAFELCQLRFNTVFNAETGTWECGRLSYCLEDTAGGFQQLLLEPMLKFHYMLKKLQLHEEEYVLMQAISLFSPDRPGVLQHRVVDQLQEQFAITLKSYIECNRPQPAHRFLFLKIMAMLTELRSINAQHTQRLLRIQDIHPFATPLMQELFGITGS

With Hexabromocyclododecane, the “Human PXR RECh20” value turned out to be 2.6 µM.
